# According to ChEMBL document CHEMBL3853340, “Dihydropyrimidinones and -thiones with improved activity against human polyomavirus family members” (Bioorg Med Chem Lett, 2016):
# Protein sequences, listed by entry. Tags and fused reporters are not part of them.
# UniProt P03070, whole entry: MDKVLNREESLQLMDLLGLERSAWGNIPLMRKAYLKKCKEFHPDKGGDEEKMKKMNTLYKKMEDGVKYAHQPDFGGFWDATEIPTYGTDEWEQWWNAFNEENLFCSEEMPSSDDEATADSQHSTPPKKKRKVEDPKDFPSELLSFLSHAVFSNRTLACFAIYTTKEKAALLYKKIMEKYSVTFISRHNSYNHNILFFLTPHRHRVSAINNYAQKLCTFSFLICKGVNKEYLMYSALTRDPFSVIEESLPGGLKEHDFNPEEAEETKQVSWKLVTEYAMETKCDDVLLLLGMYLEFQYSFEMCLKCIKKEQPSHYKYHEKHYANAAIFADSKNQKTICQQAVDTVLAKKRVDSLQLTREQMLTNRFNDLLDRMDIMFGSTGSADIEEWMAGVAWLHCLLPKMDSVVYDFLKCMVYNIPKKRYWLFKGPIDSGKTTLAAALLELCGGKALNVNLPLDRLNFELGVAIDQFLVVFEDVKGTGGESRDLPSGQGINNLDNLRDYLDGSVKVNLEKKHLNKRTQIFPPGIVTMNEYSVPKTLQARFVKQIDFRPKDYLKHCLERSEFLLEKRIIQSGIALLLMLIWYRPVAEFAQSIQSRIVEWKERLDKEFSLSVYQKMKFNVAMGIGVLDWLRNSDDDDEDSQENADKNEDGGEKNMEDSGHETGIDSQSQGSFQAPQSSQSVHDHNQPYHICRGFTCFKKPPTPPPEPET
# Tests used:
# Homo sapiens [1] = assay: Inhibition of human Hsp70 expressed in Escherichia coli BL21(DE3) assessed as suppression of Hdj2-activated ATPase activity at 100 uM dosed 15 mins after Hsp70 and Hdj2 pre-incubation and measured after 60 mins by TLC based steady state ATPase assay relative to control
# Procedure, shortened: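 Hsp70 ATPase activity measured with Hdj2 (Hsp40) at a 1:0.5 Hsp70:Hsp40 molar ratio. Activity was normalized to DMSO-matched reactions lacking compound. Values are the means of three independent experiments.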
# [2] = molecular target: Large T antigen (Simian virus 40) (UniProt P03070); assay: Inhibition of ATPase activity of SV40 T antigen expressed in baculovirus at 10 uM by antibody affinity chromatography relative to control; details: Betapolyomavirus macacae
# Procedure, shortened: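 Purified T antigen ATPase activity measured with test agent at a final concentration of 10 μM. Activity was normalized to reactions with no compound but an equal amount of DMSO. Values are the means of three independent experiments.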
# Homo sapiens [3] = species on record: Homo sapiens; assay: Inhibition of human Hsp70 expressed in Escherichia coli BL21(DE3) assessed as suppression of ATPase activity at 100 uM after 60 mins by TLC based steady state ATPase assay relative to control
# Procedure, shortened: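 Hsp70 ATPase activity measured without cochaperone. Activity was normalized to reactions with no compound but an equal amount of DMSO. Values are the means of three independent experiments.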
compound,measurement,setting,value
CC1=C(C(=O)OCc2ccccc2)C(c2ccc(-c3ccccc3C)cc2)NC(=O)N1Cc1ccc(-c2nnn[nH]2)cc1 (stereo not drawn),fold change (FC),Homo sapiens [1],4.3
same,fold change (FC),[2],4.3
same,fold change (FC),Homo sapiens [3],1.2
